Laboratory results as given in ChEMBL document CHEMBL1126757, “Benzoquinazoline inhibitors of thymidylate synthase: enzyme inhibitory activity and cytotoxicity of some 3-amino- and 3-methylbenzo[f]quinazolin-1(2H)-ones” (J Med Chem, 1993).

System: Thymidylate synthase (Bos taurus)
Assay: Tested against thymidylate synthase (TS) in calf thymus at 59 uM

- inhibition: 19%
Structure (SMILES): Nc1nc(O)c2c(n1)CCc1c-2ccc2ccccc12
